Earlier results in PMC11926880, “Procognitive Potential of Neuroprotective Triazine 5-HT6 Receptor Antagonists Tested on Chronic Activity In Vivo in Rats: Computer-Aided Insight into the Role of Chalcogen-Differences on the Pharmacological Profile” (ACS Chemical Neuroscience, 2025).

Design: method as in PMID 38190615
Conditions: serum, 1 mg/kg i.p.; cited from earlier work

CN1CCN(c2nc(N)nc(C(C)(C)[Se]c3ccc4ccccc4c3)n2)CC1 [PPK-32]
t0.5λz: 68.7 min
